This experiment concerns the target T1, extracellular region of human CD123 subtype 1 with C-terminal His tag (hCD123-SP1-his) (human (Homo sapiens), UniProt P26951 19-305).
T1 construct: Recombinant, expressed in HEK293 cells
T1 sequence: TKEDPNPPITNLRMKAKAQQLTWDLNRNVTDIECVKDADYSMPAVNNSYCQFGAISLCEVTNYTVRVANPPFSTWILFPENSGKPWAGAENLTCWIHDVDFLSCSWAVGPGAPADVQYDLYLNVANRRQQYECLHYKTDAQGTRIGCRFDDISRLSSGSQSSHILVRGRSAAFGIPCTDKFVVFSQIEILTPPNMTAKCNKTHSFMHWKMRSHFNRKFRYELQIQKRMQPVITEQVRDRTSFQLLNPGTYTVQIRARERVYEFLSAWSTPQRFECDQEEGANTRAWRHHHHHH
Nature of the experiment: SPR, Biacore X100; antibody captured by anti-human IgG (Fc) on CM5, hCD123-SP1-his as analyte, 1:1 model, 25 C. On the procedure: The affinity of anti-CD123 antibodies was determined by surface plasmon resonance using Biacore X100. Related reagents and consumables such as Amino Conjugation Kit (BR-1000-50), Human Antibody Capture Kit (BR-1008-39), CM5 Chip (BR100012) and 10×HBS-EP (BR100669) buffer with pH 7.4 were all purchased from GE healthcare. According to the instructions in the kits, 1-Ethyl-3-(3-dimethylaminopropyl) carbodiimide hydrochloride (EDC) and N-Hydroxysuccinimide (NHS) was used to activate the surface of the carboxylated CM5 chip, and the anti-human IgG (Fc) antibody (capture antibody) was diluted to 25 μg/mL with 10 mM, pH5.0 sodium acetate, followed by an injection with a flow rate at 10 μL/min to achieve a coupling volume of approximately 10,000 response units (RU). Following the injection of the capture antibody, 1 M ethanolamine was injected to block unreacted groups. […] The chip surface was regenerated by injecting 3M MgCl₂ solution at 10 μL/min for 30 s. Association rates (Kₒₙ) and dissociation rates (Koff) were calculated from association and dissociation sensorgrams fitted by a 1:1 binding model using Biacore X100 evaluation software version 2.0.1. The dissociation equilibrium constant (KD) was calculated as the ratio Koff/Kₒₙ.

B1: anti-CD123 antibody CSL362 (antibody, human IgG1, kappa, V domains shown)
VH: EVQLVQSGAEVKKPGESLKISCKGSGYSFTDYYMKWARQMPGKGLEWMGDIIPSNGATFYNQKFKGQVTISADKSISTTYLQWSSLKASDTAMYYCARSHLLRASWFAYWGQGTMVTVSS
VL: DIVMTQSPDSLAVSLGERATINCESSQSLLNSGNQKNYLTWYQQKPGQPPKPLIYWASTRESGVPDRFSGSGSGTDFTLTISSLQAEDVAVYYCQNDYSYPYTFGQGTKLEIKR
B1 came in with a dissociation constant Kd of 0.599 nM, a dissociation rate constant (koff) of 7.93e-05 s⁻¹ and an on-rate constant (kon) of 132000 M⁻¹ s⁻¹.

The Kd is a measure of binding affinity in units of concentration. Lower therefore signals tighter binding. The koff is the first-order rate constant of dissociation. A lower koff goes with slow dissociation. As a reminder, the kon is the rate constant with which the complex forms. Read a low kon as slow association.

The values above are taken from patent US20230071422A1 (BEIJING WISDOMAB BIOTECHNOLOGY, published 2023).
